Earlier results in patent US5587392A, “Azolyl methyl phenyl derivatives having aromatase inhibitory activity” (Mochida Pharmaceutical Co., Ltd., priority 1994, dated 1996).

System: aromatase
Details: related art; cited from earlier work

CCC1(c2ccc(N)cc2)CCC(=O)NC1=O (stereo not shown) [AG, Aminoglutethimide]
aromatase inhibitory action: weak aromatase inhibitory action
